{
  "sequences": {"note": "Sequences of proteins named here, by UniProt entry; tags and fusion partners are left off.", "UniProt P49327, whole entry": "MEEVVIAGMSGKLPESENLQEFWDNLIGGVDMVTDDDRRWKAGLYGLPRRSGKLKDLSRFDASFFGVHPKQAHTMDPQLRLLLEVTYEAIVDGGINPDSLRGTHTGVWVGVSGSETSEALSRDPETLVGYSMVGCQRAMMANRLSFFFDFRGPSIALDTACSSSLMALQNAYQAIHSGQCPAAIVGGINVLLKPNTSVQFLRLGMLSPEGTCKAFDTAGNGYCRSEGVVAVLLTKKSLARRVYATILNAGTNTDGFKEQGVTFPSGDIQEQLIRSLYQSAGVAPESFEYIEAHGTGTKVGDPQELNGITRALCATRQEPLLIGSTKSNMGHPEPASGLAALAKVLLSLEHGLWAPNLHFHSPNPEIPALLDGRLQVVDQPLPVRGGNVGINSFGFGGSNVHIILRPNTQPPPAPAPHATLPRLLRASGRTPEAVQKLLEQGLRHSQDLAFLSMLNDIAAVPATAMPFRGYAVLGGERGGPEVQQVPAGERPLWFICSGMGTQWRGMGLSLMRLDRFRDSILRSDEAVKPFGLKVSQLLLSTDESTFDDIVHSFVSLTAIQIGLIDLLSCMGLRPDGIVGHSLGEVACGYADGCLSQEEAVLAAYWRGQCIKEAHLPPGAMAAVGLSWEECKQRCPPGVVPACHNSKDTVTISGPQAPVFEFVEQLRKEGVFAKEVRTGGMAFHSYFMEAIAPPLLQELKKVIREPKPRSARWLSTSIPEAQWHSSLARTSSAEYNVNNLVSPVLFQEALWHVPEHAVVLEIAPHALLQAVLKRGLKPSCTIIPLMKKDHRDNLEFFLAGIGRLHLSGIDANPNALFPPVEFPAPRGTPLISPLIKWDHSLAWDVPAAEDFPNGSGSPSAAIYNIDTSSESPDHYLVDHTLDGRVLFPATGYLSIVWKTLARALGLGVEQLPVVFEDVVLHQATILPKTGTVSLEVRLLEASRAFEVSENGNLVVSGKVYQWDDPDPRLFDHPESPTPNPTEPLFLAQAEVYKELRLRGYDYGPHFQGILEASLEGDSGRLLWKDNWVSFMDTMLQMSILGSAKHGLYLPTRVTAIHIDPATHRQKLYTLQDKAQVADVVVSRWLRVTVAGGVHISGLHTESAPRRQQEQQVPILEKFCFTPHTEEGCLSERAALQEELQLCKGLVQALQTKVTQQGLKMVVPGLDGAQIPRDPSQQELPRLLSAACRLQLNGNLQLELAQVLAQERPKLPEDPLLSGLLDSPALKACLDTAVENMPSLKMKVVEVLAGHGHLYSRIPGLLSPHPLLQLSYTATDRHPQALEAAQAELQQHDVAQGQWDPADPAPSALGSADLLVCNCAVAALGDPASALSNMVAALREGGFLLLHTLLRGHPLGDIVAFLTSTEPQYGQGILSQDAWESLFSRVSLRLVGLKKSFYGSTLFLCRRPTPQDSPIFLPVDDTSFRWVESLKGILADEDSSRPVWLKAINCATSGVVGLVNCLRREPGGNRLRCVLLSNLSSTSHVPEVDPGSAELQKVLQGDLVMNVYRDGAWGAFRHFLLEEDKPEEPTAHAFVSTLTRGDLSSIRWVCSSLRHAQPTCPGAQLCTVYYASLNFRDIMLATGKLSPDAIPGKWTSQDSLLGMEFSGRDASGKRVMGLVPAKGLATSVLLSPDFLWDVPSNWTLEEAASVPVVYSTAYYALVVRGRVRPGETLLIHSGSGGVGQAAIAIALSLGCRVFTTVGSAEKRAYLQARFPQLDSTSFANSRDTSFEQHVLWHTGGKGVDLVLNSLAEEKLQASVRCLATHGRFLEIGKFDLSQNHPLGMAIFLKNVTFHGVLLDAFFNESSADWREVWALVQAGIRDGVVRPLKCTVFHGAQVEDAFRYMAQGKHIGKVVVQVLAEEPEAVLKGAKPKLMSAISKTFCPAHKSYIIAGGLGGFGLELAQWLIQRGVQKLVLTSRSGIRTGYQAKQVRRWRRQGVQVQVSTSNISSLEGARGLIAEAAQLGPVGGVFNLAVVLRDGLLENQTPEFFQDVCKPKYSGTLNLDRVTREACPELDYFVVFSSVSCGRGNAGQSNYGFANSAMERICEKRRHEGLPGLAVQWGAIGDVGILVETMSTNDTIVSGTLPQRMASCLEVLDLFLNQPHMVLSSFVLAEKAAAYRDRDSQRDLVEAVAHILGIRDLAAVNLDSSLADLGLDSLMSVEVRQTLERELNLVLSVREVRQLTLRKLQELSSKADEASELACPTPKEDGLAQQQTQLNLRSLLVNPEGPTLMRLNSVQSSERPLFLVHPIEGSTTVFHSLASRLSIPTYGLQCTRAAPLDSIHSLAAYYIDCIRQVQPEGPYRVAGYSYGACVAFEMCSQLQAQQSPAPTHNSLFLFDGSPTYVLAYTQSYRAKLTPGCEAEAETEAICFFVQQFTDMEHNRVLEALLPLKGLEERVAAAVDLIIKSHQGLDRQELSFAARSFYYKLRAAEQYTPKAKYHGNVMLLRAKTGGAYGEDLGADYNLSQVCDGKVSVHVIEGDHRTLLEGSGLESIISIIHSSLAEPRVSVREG"},
  "source": "PubChem BioAssay AID602261",
  "about": "(Sanford-Burnham Center for Chemical Genomics, 2012)",
  "note": "The entries are a selection whose mix differs from that of the whole data set. Active and inactive are the calls of the source.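 Rule for the calls: active = compounds whose normalised, plate-corrected inhibition of enzyme fluorescence in the single-dose primary screen is 50% or more; inactive = the rest.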",
  "data": [
    {"molecular_target": "Fatty acid synthase (Homo sapiens) (UniProt P49327)", "test": "inhibition of human FAS-TE enzyme activity – biochemical, fluorescence intensity, uHTS, primary screen (AID 602261);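 note: 0% = DMSO with enzyme and 100% = substrate without enzyme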", "conditions": "recombinant FAS-TE, OMFH fluorogenic substrate, fluorescence endpoint; at 15 µM; stronger effect = higher value", "values": [
      {"smiles": "CCC(=O)N(c1ccccc1)C1(COC)CCN(CCc2cccs2)CC1", "inhibition": "inactive: -2.8%"},
      {"smiles": "CCC(=O)N(c1ccccc1)C1(COC)CCN(CCn2nnn(CC)c2=O)CC1", "inhibition": "inactive: -2.5%"}
    ]}
  ]
}
